Experiment [1] can be described thus: Selectivity index, ratio of IC50 for ram seminal vesicle COX1 to IC50 for human recombinant COX2.
Experiment [2] concerns the target T1, Polyunsaturated fatty acid 5-lipoxygenase (Homo sapiens) (UniProt P09917).
T1 sequence (whole entry): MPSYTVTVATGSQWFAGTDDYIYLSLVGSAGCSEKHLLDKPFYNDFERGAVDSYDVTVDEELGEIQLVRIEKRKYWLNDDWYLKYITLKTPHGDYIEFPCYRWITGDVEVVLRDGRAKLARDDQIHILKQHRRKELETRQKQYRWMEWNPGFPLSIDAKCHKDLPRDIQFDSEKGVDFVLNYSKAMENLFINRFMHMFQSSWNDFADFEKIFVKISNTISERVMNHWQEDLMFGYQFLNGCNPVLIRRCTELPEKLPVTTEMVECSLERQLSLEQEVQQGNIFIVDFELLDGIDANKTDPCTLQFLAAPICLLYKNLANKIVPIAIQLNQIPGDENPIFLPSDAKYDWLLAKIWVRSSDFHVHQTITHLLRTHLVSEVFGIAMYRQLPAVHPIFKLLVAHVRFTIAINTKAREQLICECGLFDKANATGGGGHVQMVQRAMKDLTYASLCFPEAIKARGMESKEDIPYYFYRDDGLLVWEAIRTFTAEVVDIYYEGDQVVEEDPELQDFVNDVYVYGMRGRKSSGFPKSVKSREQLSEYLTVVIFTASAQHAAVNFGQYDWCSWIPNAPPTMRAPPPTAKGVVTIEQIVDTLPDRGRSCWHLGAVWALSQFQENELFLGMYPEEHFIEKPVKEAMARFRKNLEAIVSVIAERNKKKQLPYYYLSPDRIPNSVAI
The experiment in a line: Potency index, ratio of IC50 for zileuton to IC50 for test compound fior inhibition of human recombinant 5-LOX assessed as reduction in leukotriene B4 production pre-incubated for 10 mins before arachidonic acid addition and measured after 10 mins by ELISA.

For the compound `CC(C)=CCC/C(C)=C/Cc1c(O)cc2c(c1O)C(=O)C[C@@H](c1ccc(O)c(O)c1)O2` [NYMPHAEOL A], the Ratio IC50 was 0.43 in experiment [1] and 10 in experiment [2].
